From patent publication US7344829B2, “Methods for detecting the efficacy of anticancer treatments” (Board of Regents, the University of Texas System, priority 2000, dated 2008)

Tested on: L3.6pl human pancreatic cancer cells
Assay: Survival of nude mice with human pancreatic carcinoma
Assay type: in vivo
Details: gemcitabine 125 mg/kg biweekly i.p., PKI166 50 mg/kg daily oral; for Metastasis Liver / Metastasis Lymph Nodes / Pancreatic Tumors: necropsy when moribund
Protocol: Orthotopic Implantation of Tumor Cells. […] Cells were injected into the pancreas as described previously. The mice were killed when moribund (5–6 wk). […] Histopathology confirmed the nature of the disease.
The therapy experiment was repeated to determine overall survival. To do so, mice were implanted with L3.6pl cells in the pancreas and randomized to the four treatment groups (n=5) on day 7. The mice were killed and necropsied when they became moribund. The volume of pancreatic tumors and the incidence of lymph node and liver metastasis was recorded. Survival was evaluated by the Kaplan-Meier method.
Necropsy Procedures and Histological Studies. Mice were euthanized and the body weight was determined. Primary tumors in the pancreas were excised and weighed.
Statistical Analysis. Pancreatic tumor volume, incidence of metastasis, expression of VEGF, IL-8, quantification of PCNA, TUNEL, CD3 1, and the percentage of apoptotic endothelial cells were compared by unpaired Student's t test. Survival analysis was computed by the Kaplan-Meier method and compared by the log-rank test.

Structure (SMILES)	Survival Median	Survival Range	Metastasis Liver	Metastasis Lymph Nodes	Pancreatic Tumors
C[C@@H](Nc1ncnc2[nH]c(-c3ccc(O)cc3)cc12)c1ccccc1 [PKI166, 4-(R)-phenethylamino-6-(hydroxyl) phenyl-7H-pyrrolo[2.3-d]-pyrimidine]	70 days	34–90^c^ days	5/15	10/15	15/15
Nc1ccn([C@@H]2O[C@H](CO)[C@@H](O)C2(F)F)c(=O)n1 [gemcitabine]	56 days	42 to 72 days	11/15	13/15	15/15
